These results are taken from patent publication US7014856B1, “Ganglioside-KLH conjugate vaccines plus OS-21” (Sloan-Kettering Institute for Cancer Research, priority 1993, dated 2006).

In data set [1] the test system is melanoma patients.
Data set [2] relates to melanoma patients. To be noted: in vivo.
Setting [3] is: 10 and 50 ug QS-21 doses with GM2-KLH.

Consider “11^3NeuAc-GgOse3Cer-keyhole limpet hemocyanin (KLH) [GM2-KLH]”, for which, in the data set with melanoma patients [1] (QS-21 dose 0), the “median severity by NCI Common Toxicity Criteria: Erythema and Induration” value is “(1)”; the “median severity by NCI Common Toxicity Criteria: Tenderness and Pain” value is given as “(1)”. Also, in the data set on melanoma patients [1] (in vivo), the “Number of adverse reactions: Erythema and Induration (local)” value was 6 (1); the “Number of adverse reactions: Fever (systemic)” value came to 0; the “Number of adverse reactions: Headache (systemic)” value is 0; the “Number of adverse reactions: Myaligia (systemic)” value worked out at 0. Further, in the data set on melanoma patients [1] (in vivo), the “Number of adverse reactions: Nausea or Vomiting (systemic)” value was 0; the “Number of adverse reactions: Tenderness and Pain (local)” value is given as 6 (1).
As for II^3NeuAc-GgOse3Cer [GM2], in the data set with melanoma patients [2], the side effects entry is “caused no additional side effects”.
Take QS-21 [reference compound]: the “restricted usage of the injected extremity” value with melanoma patients [1] (200 ug QS-21 with GM2-KLH) was 5 to 10 days. For the same substance, the “diameter of local reactions” value with melanoma patients [1] (200 ug QS-21 with GM2-KLH, all patients) is at most 20 cm. In the data set on melanoma patients [1] (setting [3]), the “duration of erythema and induration” value was in the range of 24 to 48 h; the erythema and induration was 2–4 cm. Besides, in the data set with melanoma patients [1] (in vivo), the “duration of mild local tenderness and inflammation at vaccination sites” value lay within 2 to 4 days; the “vaccinations followed by low grade fever and malaise” value is 30%.
